These are literature values, as cited in US10695437B2, “Polycomplexes of poly-lysine compounds for preventing and/or combatting amyotrophic lateral sclerosis” (GEMAC, priority 2016, dated 2020).

The series relates to ALS. To be noted: ALS patients.

Turning to `Nc1nc2ccc(OC(F)(F)F)cc2s1` [Riluzole], the “Additional median survival offered to the patient” value was “three to six”.
